In patent US20040029777A1, “Pharmaceutical preparation for taste masking” (TAISHO PHARMACEUTICAL CO., LTD., priority 2002, published 2004):

Assay: In vitro dissolution test, USP apparatus 2 (paddle)
Format: physicochemical
Details: 37° C., 50 rpm
Procedure: Complexes that corresponded to 150 mg of ibuprofen were subjected to dissolution in a USP (United States Pharmacopoeia) dissolution apparatus 2 (Paddle-type) with several kinds of solutions (900 ml). This dissolution test was conducted at 37° C., and a paddle rotation speed of 50 rpm was maintained. A UV detector was used to measure the absorbance of dissolution liquids at regular intervals of up to 120 minutes.
The complexes containing 150 mg of ibuprofen were subjected to dissolution testing using a USP dissolution apparatus 2 (Paddle-type) with several kinds of solutions (900 ml). This dissolution test was conducted at 37° C., at a paddle rotation speed of 50 rpm. A UV detector was used to measure the absorbance of dissolution liquids at regular intervals up to 120 minutes.

## Ibuprofen-lysine Salt [Ibuprofen-lysine salt complex]
  solubility in distilled water: high
